Laboratory results taken from patent publication US20020160988A1 (priority 2001, published 2002).
Where “and” joins values, the source holds several entries; their conditions need not be identical. Equal entries are not always repeated.

Amino acid sequences for entries named in this document (tags omitted). A change or cut given only in a name is not applied to a line headed by its entry. Residues count along the entry.
UniProt P79208, 17-603 limits assumed: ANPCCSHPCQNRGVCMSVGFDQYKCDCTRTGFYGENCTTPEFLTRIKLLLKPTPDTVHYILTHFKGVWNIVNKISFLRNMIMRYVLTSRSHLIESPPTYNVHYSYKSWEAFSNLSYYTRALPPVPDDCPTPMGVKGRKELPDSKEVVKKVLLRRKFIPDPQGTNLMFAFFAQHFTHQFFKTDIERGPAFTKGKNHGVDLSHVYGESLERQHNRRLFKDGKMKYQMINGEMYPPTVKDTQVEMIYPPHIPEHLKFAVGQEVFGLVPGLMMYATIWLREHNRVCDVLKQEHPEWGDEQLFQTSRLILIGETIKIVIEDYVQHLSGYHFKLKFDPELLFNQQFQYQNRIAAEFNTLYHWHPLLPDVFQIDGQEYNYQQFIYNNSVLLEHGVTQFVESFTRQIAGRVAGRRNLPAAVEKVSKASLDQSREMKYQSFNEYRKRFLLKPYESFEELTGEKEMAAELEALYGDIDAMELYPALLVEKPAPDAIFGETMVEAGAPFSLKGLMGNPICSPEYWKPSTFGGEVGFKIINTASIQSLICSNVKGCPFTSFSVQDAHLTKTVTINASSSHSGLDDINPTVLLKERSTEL
UniProt O62664, 25-600 limits assumed: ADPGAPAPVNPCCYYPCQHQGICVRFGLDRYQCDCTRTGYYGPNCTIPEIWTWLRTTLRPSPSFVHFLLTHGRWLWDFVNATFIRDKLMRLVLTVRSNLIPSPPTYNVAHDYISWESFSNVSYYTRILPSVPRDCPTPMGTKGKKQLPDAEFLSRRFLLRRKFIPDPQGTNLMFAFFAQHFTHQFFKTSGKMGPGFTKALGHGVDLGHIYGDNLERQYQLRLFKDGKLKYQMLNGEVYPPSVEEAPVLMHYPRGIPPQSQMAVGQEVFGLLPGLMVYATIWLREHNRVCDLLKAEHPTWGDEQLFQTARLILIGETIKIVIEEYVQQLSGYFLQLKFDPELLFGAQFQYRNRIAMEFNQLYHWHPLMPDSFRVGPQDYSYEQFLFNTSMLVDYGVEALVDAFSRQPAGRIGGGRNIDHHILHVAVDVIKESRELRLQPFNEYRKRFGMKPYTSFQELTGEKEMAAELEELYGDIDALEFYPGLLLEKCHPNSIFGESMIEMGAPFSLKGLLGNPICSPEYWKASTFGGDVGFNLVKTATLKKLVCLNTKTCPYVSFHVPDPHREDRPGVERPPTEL
UniProt P06276: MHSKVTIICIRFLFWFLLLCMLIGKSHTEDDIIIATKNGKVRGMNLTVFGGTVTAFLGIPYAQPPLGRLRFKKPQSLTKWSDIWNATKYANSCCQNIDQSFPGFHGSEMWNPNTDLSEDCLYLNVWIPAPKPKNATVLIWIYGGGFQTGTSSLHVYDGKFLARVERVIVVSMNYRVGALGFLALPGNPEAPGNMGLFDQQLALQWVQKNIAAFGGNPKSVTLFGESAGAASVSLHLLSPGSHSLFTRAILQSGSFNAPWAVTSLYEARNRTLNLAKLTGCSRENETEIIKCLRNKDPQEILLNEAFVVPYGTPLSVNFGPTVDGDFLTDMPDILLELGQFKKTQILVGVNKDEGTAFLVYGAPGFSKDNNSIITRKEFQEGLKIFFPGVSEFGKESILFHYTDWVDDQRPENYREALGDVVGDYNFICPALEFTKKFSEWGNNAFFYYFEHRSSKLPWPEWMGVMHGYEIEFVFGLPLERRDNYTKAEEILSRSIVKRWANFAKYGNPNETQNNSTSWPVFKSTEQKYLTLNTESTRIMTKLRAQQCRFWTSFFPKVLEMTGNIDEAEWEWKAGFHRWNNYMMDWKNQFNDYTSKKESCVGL
UniProt P22303: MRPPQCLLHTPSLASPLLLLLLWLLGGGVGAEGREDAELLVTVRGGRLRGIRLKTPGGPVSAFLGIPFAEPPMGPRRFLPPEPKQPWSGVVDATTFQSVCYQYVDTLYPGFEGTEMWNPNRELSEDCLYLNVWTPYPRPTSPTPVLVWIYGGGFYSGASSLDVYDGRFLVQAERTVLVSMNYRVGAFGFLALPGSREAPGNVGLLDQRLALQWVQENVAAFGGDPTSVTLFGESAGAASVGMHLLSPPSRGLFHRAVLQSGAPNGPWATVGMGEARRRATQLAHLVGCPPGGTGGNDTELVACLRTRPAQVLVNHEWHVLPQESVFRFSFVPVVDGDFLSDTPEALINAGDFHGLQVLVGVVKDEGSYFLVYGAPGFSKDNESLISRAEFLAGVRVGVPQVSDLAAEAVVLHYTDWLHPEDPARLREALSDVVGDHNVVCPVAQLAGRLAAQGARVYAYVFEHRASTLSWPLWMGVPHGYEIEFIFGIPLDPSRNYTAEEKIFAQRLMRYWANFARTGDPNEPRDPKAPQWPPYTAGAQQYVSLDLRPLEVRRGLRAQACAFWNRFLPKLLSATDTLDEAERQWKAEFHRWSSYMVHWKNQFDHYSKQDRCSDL
UniProt P23795: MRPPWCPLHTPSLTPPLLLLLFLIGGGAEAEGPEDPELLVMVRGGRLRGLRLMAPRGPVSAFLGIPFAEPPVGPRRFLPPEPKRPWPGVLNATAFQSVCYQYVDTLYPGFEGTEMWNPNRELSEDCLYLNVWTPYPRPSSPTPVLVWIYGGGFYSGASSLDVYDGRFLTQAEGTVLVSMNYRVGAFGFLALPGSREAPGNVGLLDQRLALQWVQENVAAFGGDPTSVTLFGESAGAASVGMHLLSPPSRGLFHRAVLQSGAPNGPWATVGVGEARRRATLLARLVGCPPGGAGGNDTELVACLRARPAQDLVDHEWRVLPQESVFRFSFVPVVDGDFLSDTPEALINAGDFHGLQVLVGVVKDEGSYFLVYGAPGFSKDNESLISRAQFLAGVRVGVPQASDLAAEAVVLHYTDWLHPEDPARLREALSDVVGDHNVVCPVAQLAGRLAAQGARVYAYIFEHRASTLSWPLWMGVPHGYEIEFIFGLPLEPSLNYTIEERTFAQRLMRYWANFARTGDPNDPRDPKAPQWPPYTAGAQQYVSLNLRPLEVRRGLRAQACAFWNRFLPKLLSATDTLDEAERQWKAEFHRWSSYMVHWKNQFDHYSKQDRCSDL

Assays:
hypobaric hypoxia = experiment: Protection against hypobaric hypoxia in mice; assay type: in vivo
[1] = Stability in human plasma in vitro; conditions: ESMS analysis
NMDA receptors = experiment: Displacement of [^3H]MK-801 from rat brain; conditions: [^3H]MK-801, L = 4.8 nM, KD = 33 nM
COX II (sheep placenta) = COX II (sheep placenta) (Ovis aries, UniProt P79208); experiment: Inhibition of COX II in vitro (PGE2 immunoassay); conditions: 10^−6 M
[2] = tested on: carrageenan-induced rat paw edema; experiment: Carrageenan-induced rat paw edema; assay type: in vivo; conditions: 5 mg/kg i.p. 30 minutes before CAR, 2 hours after CAR; vehicle only 73%
[3] = Lipophilicity: n-octanol/phosphate buffer partition; conditions: 50 mM phosphate buffer pH 7.4, 25° C
[4] = tested on: rat stomach mucosal tissue; experiment: Rat stomach mucosal tissue after intraperitoneal administration; conditions: intraperitoneal 10 mg/kg
[5] = molecular target: COX I (bovine seminal vesicles) (Bos taurus, UniProt O62664); experiment: Inhibition of COX I in vitro (PGE2 immunoassay); conditions: 10^−6 M
mice [6] = experiment: Hypothermic effect in mice (rectal temperature); assay type: in vivo; conditions: intraperitoneal 2.5 mg/kg
CAR-induced brain edema [7] = experiment: Carrageenan-induced brain edema in mice; conditions: intraperitoneal 10 mg/kg
closed head injury = experiment: Protection against closed head injury in mice; assay type: in vivo
CAR-induced brain edema [8] = experiment: Carrageenan-induced brain edema in rats; assay type: in vivo; conditions: pretreatment 10 minutes prior to icv CAR (1%)
mice [9] = experiment: In vivo toxicity (LD50) and Therapeutic Index in mice; conditions: intraperitoneal, 24 hours
[10] = molecular target: human plasma butyrylcholinesterase (HuBChE) (Homo sapiens, UniProt P06276); experiment: Inhibition kinetics of human plasma BChE in vitro (Ellman); conditions: Hu-BuChE
[11] = molecular target: recombinant human acetylcholineesterase (rHuAChE) (Homo sapiens, UniProt P22303); experiment: Inhibition of recombinant human AChE in vitro (Ellman); conditions: Hu-AChE
[12] = molecular target: fetal bovine serum-AChE (FBS-AChE) (Bos taurus, UniProt P23795); experiment: Inhibition kinetics of fetal bovine serum AChE in vitro (Ellman)
[13] = 5 mg/kg i.p. 15 minutes after head injury, vehicle 83.64, sham 78.65
[14] = 7.5 mg/kg i.p. 15 minutes after head injury
[15] = 10 mg/kg i.p. 15 minutes after head injury

In the case of `CC(C)Cc1ccc(C(C)C(=O)OCCCCCCCC[n+]2cccc(OC(=O)N(C)C)c2)cc1` (centres unmarked), the “survival of hypobaric hypoxia” value (hypobaric hypoxia; maximal hypoxia period 15 minutes) is reported as “survived even the maximal hypoxia period of 15 minutes”, the “protection against hypoxia relative to vehicle control” value (hypobaric hypoxia; various doses i.p. 30 minutes before 200 mm Hg, vehicle control 100 seconds) is reported as 7.5-9 fold and the “degradation products of the hydrolysis in plasma” value [1] is reported as “PO-OH and ibuprofen”. For the same compound, the IC50 (NMDA receptors) was 49 µM, the Ki (NMDA receptors) was 43 µM and the “% Inhibition COX II” value (COX II (sheep placenta)) was 62%. The “edema level (% EDEMA) after treatment” value [2] was “about 30%”, the “Kp (partition coefficient n-octanol / phosphate buffer)” value [3] was 6.14 and the “effect on mucosal tissue of rat stomach” value [4] was “did not cause any detrimental effect on the mucosal tissue of rat stomach”. The “% Inhibition COX I” value [5] was 41%, the “persistence of hypothermic effect” value (mice [6]) was “at least 6 hours” and the “time of maximal hypothermic effect” value (mice [6]) was 30 min. For the same compound, the “effect on brain water content” value (CAR-induced brain edema [7]) was “significantly reduces the brain water content”, the “Water content (%)” value (closed head injury; [13]) was 80.94% and 80.94 ± 0.84 % and the “DNSS (difference in neurological severity score, 1 h − 24 h)” value (closed head injury; 5 mg/kg i.p., vehicle 1.0) was 1.25 and 1.25 ± 0.63. For the same compound, the “Water content (%)” value (closed head injury; [14]) was 81.45% and 81.45 ± 0.35%, the “Water content (%)” value (closed head injury; [15]) was 80.91% and 80.91 ± 0.47 % and the “brain % water content” value (CAR-induced brain edema [8]) was 82%.

In the case of `CC(=O)Oc1ccccc1C(=O)OCCCCCCCC[n+]1cccc(OC(=O)N(C)C)c1`, the “Kp (partition coefficient n-octanol / phosphate buffer)” value [3] is reported as 0.47.

With “N-(Naproxen octanoate)-3-(N,N-dimethylcarbamoyl) pyridinium bromide” the “LD50 (mice i.p.)” value (mice [9]) was 37.2 mg/kg, the “% Inhibition COX II” value (COX II (sheep placenta)) was 62% and the “Kp (partition coefficient n-octanol / phosphate buffer)” value [3] was 6.5. The “K′” value [10] was 0.07 min⁻¹, the “ki (bimolecular rate constant)” value [10] was 3.3 × 10^5 M^−1m^−1 and the “ks × 10^3” value [10] was 1.1 minutes^−1. For the same compound, the Ki ([10]; 25° C, dissociation constant) was 0.21 µM, the “% Inhibition COX I” value [5] was 55% and the “K′” value [11] was 0.4 min⁻¹. For the same compound, the “ki (bimolecular rate constant)” value [11] was 1.7 × 10^6 M^−1m^−1, the “ks × 10^3” value [11] was 40 minutes^−1 and the Ki ([11]; 25° C, dissociation constant) was 0.24 µM. For the same compound, the “K′” value [12] was 0.9 min⁻¹, the “ki (bimolecular rate constant)” value [12] was 3.5 × 10^5 M^−1m^−1 and the “ks × 10^3” value [12] was 95 minutes^−1. For the same compound, the Ki ([12]; 25° C, dissociation constant) was 2.5 µM, the “Water content (%)” value (closed head injury; [13]) was 81.38% and 81.38 ± 0.59% and the “DNSS (difference in neurological severity score, 1 h − 24 h)” value (closed head injury; 5 mg/kg i.p., vehicle 1.0) was 2.0 and 2.00 ± 1.0. For the same compound, the “DNSS (difference in neurological severity score, 1 h − 24 h)” value (closed head injury; 7.5 mg/kg i.p.) was 1.52 and 1.50 ± 0.62, the “Water content (%)” value (closed head injury; [14]) was 82.09% and 82.09 ± 0.19% and the “Water content (%)” value (closed head injury; [15]) was 81.38% and 81.38 ± 0.55%.

With `COc1ccc2c(c1)c(CC(=O)OCCCCCCCC[n+]1cccc(OC(=O)N(C)C)c1)c(C)n2C(=O)c1ccc(Cl)cc1` the “% Inhibition COX II” value (COX II (sheep placenta)) was 75%, the “edema level (% EDEMA) after treatment” value [2] was “about 30%” and the “Kp (partition coefficient n-octanol / phosphate buffer)” value [3] was >99. For the same compound, the “% Inhibition COX I” value [5] was 41%.
